For this data set, the target named is androgen receptor (Homo sapiens, UniProt P10275). Description: Yeast two-hybrid screening of unbiased X15 peptide library, ligand-induced β-galactosidase activity (FIG. 3, Table 503). On the set-up: expressed in transfected cells; host or cells: Saccharomyces cerevisiae PJ69-4α. Type of data set: cell-based.

Amino acid sequences for entries named in this document (tags omitted).
UniProt P10275, whole entry, species assumed: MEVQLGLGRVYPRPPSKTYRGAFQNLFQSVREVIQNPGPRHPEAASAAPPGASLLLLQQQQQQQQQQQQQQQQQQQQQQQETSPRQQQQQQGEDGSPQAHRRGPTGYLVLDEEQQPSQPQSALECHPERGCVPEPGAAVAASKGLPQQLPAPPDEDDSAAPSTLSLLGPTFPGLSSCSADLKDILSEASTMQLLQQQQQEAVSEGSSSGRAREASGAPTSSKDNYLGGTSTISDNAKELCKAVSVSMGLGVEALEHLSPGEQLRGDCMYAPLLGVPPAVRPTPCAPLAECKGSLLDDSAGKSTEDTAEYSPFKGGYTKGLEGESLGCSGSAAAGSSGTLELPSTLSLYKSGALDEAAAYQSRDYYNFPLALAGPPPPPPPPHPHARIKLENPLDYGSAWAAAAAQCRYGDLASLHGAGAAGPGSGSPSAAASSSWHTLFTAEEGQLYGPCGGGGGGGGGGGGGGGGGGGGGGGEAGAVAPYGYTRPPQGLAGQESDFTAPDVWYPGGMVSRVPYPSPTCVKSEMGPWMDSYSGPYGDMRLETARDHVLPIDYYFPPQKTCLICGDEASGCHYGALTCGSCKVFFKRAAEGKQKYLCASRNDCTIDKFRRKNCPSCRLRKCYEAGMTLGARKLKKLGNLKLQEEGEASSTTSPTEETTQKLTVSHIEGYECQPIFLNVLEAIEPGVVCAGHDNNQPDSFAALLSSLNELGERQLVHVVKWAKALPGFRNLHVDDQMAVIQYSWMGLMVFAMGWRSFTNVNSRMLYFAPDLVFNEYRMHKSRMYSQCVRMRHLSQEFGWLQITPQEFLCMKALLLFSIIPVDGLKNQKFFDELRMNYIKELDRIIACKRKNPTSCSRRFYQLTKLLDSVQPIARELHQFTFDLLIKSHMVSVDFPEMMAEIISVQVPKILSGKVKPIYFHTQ

Turning to EFRFPFHEMVREWESMGLERVRYAEP [M4D1], the Fold induction is recorded as >2.

For the origin of these results see patent US20040043420A1, “Method of identifying conformation-sensitive binding peptides and uses thereof” (priority 2003, published 2004).
